The record followed here is patent US20240174992A1, “SPLIT MODIFIED DEHALOGENASE VARIANTS” (Promega Corporation, priority 2022, published 2024).

This assay addresses M13-HaloTag[22-297](M2F)-EGFP. Description: cell-based or functional assay.

In the case of “HaloTag[3-19]-CaM (from UniProt P0DP23 2-149)”, the increase in median JF646 fluorescence with 6 mM calcium chloride, live HeLa imaging was found to be 7 fold.
